Experimental data reported in patent publication US7892350B2, “Sacrificial agents for fly ash concrete” (Boral Material Technologies Inc., priority 2003, dated 2011).

Assay: Second sacrificial agent testing protocol: paste air measurements with DDBS (0.0125 wt %) and rating; for SA Rating (0-4): key: 0: Fail; 1: Poor; 2: Good; 3: Preferred; 4: Most preferred

Structure (SMILES): OCCN(CCO)CCO
- B1 + 0.0125% DDBS + 0.05% SA (air entrainment) (B1 FA/cement paste, 0.0125 wt % DDBS, 0.05 wt % SA): 2.5
- B1 + 0.0125% DDBS + 0.1% SA (air entrainment) (B1 FA/cement paste, 0.0125 wt % DDBS, 0.10 wt % SA): 3.1
- PCA + 0.1% SA (level of air entrainment by the candidate sacrificial agent) (Portland cement paste (PCA), 0.1 wt % SA, no DDBS): 0.6
- SA Rating (0-4) (sacrificial agent overall rating index): 0
